These are literature values, as cited in US10617654B2, “Use of fenoterol and fenoterol analogues in the treatment of glioblastomas and astrocytomas” (priority 2010, dated 2020).

Protein sequences, listed by entry. Tags and fused reporters are not part of them.
UniProt P07550, whole entry: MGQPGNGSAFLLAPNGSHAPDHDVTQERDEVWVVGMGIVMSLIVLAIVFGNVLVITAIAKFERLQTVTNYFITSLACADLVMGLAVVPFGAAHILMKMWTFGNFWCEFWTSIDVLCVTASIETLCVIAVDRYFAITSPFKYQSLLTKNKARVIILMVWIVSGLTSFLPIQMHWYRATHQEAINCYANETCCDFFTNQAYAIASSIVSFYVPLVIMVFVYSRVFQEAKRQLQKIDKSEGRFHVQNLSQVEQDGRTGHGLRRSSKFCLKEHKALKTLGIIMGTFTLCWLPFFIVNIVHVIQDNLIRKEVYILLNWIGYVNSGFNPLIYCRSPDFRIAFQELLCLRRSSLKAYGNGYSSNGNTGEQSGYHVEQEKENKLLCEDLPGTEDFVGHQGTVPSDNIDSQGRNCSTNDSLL

Structures are written as SMILES.

This data set addresses β2-AR (Homo sapiens (Human), UniProt P07550). The following applies: previously reported, cited from earlier work.

For `COc1ccc(C[C@@H](C)NC[C@H](O)c2ccc(O)c3[nH]c(=O)ccc23)cc1`, the “Ki β1/Ki β2” value is recorded as 53. For the same molecule, under “read-out: β2 Ki”, the Ki (usually a dissociation constant, usually derived from enzyme kinetics or from competition with a known ligand) is 0.012 µM.
